From paper PMC10715191, “Exploration of the novel fluoroquinolones with high inhibitory effect against quinolone-resistant DNA gyrase of Salmonella Typhimurium” (Microbiology Spectrum, 2023)

By UniProt entry, the sequences of proteins in these tests, tags left out.
UniProt P37411, whole entry: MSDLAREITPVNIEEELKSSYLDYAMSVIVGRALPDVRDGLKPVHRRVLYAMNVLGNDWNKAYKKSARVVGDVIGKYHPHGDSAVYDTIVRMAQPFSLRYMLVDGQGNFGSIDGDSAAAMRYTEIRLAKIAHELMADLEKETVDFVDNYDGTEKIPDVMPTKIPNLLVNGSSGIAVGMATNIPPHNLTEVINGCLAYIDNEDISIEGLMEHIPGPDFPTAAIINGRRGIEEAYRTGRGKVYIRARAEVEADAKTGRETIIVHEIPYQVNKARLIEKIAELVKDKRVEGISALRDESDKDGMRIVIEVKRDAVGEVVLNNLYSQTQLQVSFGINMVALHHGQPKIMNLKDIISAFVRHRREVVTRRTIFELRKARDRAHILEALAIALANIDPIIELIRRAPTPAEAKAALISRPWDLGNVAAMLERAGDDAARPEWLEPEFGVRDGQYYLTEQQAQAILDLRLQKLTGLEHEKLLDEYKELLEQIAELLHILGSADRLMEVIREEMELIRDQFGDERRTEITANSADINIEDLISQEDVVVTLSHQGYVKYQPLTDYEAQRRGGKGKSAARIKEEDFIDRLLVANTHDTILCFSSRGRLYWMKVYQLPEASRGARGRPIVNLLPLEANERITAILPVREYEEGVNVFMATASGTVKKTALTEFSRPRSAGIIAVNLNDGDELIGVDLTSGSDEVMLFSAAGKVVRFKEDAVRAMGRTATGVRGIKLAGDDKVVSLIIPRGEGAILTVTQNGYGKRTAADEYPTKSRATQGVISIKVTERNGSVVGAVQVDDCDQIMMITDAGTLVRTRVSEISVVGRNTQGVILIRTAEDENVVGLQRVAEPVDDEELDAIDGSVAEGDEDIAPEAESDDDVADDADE

Target: T1, WT S. Typhimurium DNA gyrase (Salmonella typhimurium, UniProt P0A2I3+P37411)
T1 construct: made in house; host or cells: Escherichia coli BL21(DE3)
Experiment: Fluoroquinolone-inhibited DNA supercoiling assay, WT DNA gyrase
Assay type: biochemical
Conditions: read-out: IC50s ± SD, WT (converted)
Text: Recombinant DNA gyrase was obtained as separate subunits, GyrA and GyrB. In total, plasmids encoding nine subunits including WT GyrA and GyrB as well as seven GyrA with amino acid substitutions (Ser83Phe, Ser83Ile, Ser83Tyr, Asp87Gly, Asp87Asn, Asp87Tyr, and […]) in the quinolone resistance determining region were constructed as described in our previous study ([38]). These plasmids were introduced into Escherichia coli BL21(DE3) (Merck KGaA, Darmstadt, Germany), and protein expression was induced in the bacterial cells. A transformed E. coli was inoculated into Luria-Bertani broth supplemented with ampicillin (50 mg/L) and incubated at 37°C until the optical density value reached 0.60. Expression of GyrA and GyrB was induced by adding 1 mM isopropyl beta-D-1-thiogalactopyranoside (Wako Pure Chemical Industries Ltd, Osaka, Japan) followed by incubation at 16°C for 40 h (for GyrA), or 18°C for 13 h (for GyrB). […] The protein purity was assessed by sodium dodecyl sulfate-polyacrylamide gel electrophoresis (SDS-PAGE) (ATTO, Tokyo, Japan) as shown in Fig. 7.
[…]. […] The amount of supercoiled DNA was quantified by its intensity using ImageJ, the digital image processing software (https://imagej.nih.gov/ij/download.html). […]

O=C(O)c1cn(C2CC2)c2cc(N3CCNCC3)c(F)cc2c1=O [Ciprofloxacin]
IC50: 0.217 µM
